Measured values reported in patent US6783973B1, “Mammalian catecholamine receptor genes and uses” (Oregon Health & Science University, priority 2000, dated 2004).

What was measured:
[1] = test system: HEK 293 cells transfected with pcDNA3.1 without catecholamine receptor sequences; test: MAP kinase pathway stimulation, Elk-gal/luciferase reporter assay in control HEK 293 cells transfected with pcDNA3.1
[2] = test system: human catecholamine receptor; test: MAP kinase pathway stimulation, Elk-gal/luciferase reporter assay in HEK 293 cells transfected with H2-3pcDNA3.1

In the case of CCCN1CCC[C@@H]2Cc3n[nH]cc3C[C@H]21 [Quinpirole], the “fold stimulation of luciferase (MAP kinase activation), pcDNA3.1” value [1] is reported as 0.6 fold and the “fold stimulation of luciferase (MAP kinase activation), H2-3 pcDNA3.1” value [2] is reported as 2.14 fold.
